Bounds are passed on as bounds.

The chains behind the UniProt entries cited, without tags or fusion partners. Where a name states a change or a piece, a line headed by the entry shows the natural chain unless it says otherwise.
UniProt P48048: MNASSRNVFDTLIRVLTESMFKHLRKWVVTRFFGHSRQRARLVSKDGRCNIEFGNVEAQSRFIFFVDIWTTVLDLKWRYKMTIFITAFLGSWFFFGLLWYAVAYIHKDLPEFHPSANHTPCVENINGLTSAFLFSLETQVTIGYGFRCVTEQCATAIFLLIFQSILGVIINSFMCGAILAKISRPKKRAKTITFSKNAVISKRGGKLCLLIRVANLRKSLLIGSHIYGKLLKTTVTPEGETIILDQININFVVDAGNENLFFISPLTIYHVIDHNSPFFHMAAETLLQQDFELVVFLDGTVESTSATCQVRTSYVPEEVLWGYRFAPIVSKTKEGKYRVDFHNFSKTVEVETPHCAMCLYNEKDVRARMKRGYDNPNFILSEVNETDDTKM

Data on 36 compounds can be found in US9062070B2, “Inhibitors of the renal outer medullary potassium channel” (Merck Sharp & Dohme Corp., priority 2011, dated 2015).

In one test the target is hROMK (hKir1.1) (Homo sapiens (Human), UniProt P48048). The test is described as follows: Thallium Flux Assay (ROMK channel functional thallium flux, FLIPR-Tetra). In kind it is cell-based. The following applies: HEK293 cells stably expressing hROMK (hKir1.1).
For a further test, the target named is Kir1.1 (ROMK1) (Homo sapiens (Human), UniProt P48048). The test is described as follows: Electrophysiology Assay (whole cell voltage clamp, IonWorks Quattro). In kind it is cell-based. The following applies: Chinese hamster ovary cells stably expressing Kir1.1; block during voltage step to 0 mV. (In general: The patch-clamp technique gives a direct electrical read-out from membranes.)

Usually IC50 stands for the concentration needed to halve the response being measured. A lower IC50 goes with greater potency. As for `C[C@@H]1Cc2cc([C@@H]3CN4CCN(C(=O)C5CCc6nc(-n7cnnn7)ccc65)C[C@H]4CO3)ccc2C(=O)O1` (single isomer, unassigned) [Example 1B], the IC50 at hROMK (hKir1.1) and on Kir1.1 (ROMK1) was greater than 1000 nM in each case.
For the compound `C[C@H]1Cc2c(ccc([C@@H]3CN4CCN(C(=O)C5CCc6nc(-n7cnnn7)ccc65)C[C@H]4CO3)c2F)C(=O)O1` (some centres unmarked) [Example 88], the IC50 was 330 nM on hROMK (hKir1.1) and 100 nM against Kir1.1 (ROMK1).
Turning to `C[C@H]1Cc2c(ccc([C@H]3CN4CCN(C(=O)C5CCc6nc(-n7cnnn7)ccc65)C[C@H]4CO3)c2F)C(=O)O1` (some centres unmarked) [Example 87], on hROMK (hKir1.1), the half-inhibitory concentration (IC50) was 590 nM.
As to `Cc1c([C@H]2CN3CCN(C(=O)C4CCc5cc(-n6cnnn6)ncc54)C[C@H]3CN2)ccc2c1COC2=O` (some centres unmarked) [Example 101], the values for the IC50 against hROMK (hKir1.1) and at Kir1.1 (ROMK1) were 550 nM and 230 nM, respectively.
Turning to `C[C@@H]1Cc2cc([C@@H]3CN4CCN(C(=O)C5CCc6cc(-n7cnnn7)ncc65)C[C@H]4CO3)ccc2C(=O)O1` (some centres unmarked) [Example 48], it took 630 nM to reach half-maximal inhibition at hROMK (hKir1.1) (IC50).
Take `O=C1OCCc2c1ccc([C@@H]1CN3CCN(C(=O)C4CCc5nc(-n6cnnn6)ccc54)C[C@H]3CO1)c2F` (some centres unmarked) [Example 78]: the IC50 on hROMK (hKir1.1) was 500 nM; against Kir1.1 (ROMK1), 160 nM.
`C[C@@H]1Cc2cc([C@@H]3CN4CCN(C(=O)C5CCc6cc(-n7cnnn7)ncc65)C[C@H]4CO3)ccc2C(=O)O1` (some centres unmarked) [Example 47]: the midpoint of inhibition against hROMK (hKir1.1), the IC50, lay at 630 nM.
For the compound `C[C@@H]1Cc2cc([C@H]3CN4CCN(C(=O)C5CCc6nc(-n7cnnn7)ccc65)C[C@H]4CO3)ccc2C(=O)O1` (single isomer, unassigned) [Example 1D], the IC50 at hROMK (hKir1.1) and on Kir1.1 (ROMK1) was greater than 1000 nM in each case.
With `O=C1OCCc2cc([C@@H]3CN4CCN(C(=O)C5CCc6nc(-n7cnnn7)ccc65)C[C@H]4CO3)ccc21` (single isomer, unassigned) [Example 17A], the results for the IC50 at hROMK (hKir1.1) and against Kir1.1 (ROMK1) were 190 nM and 100 nM, respectively.
Take `Cc1c(C2CN3CCN(C(=O)C4CCc5nc(-n6cnnn6)ccc54)CC3CCO2)ccc2c1COC2=O` (centres unmarked) [Example 61]: the IC50 against hROMK (hKir1.1) turned out to be 140 nM; against Kir1.1 (ROMK1), 190 nM.
Consider `C[C@@H]1Cc2c(ccc([C@@H]3CN4CCN(C(=O)C5CCc6nc(-n7cnnn7)ccc65)C[C@@H]4CO3)c2F)C(=O)O1` (some centres unmarked) [Example 89], for which the IC50 against hROMK (hKir1.1) turned out to be 600 nM.
Still for that read-out and setting: the same measure for `C[C@H]1Cc2cc([C@H]3CN4CCN(C(=O)C5CCc6nc(-n7cnnn7)ccc65)C[C@H]4CO3)ccc2C(=O)O1` (single isomer, unassigned) [Example 1K]: 350 nM.
Turning to `C[C@H]1Cc2cc(C3CN4CCN(C(=O)C5CCc6nc(-n7cnnn7)ccc65)CC4(C)CO3)ccc2C(=O)O1` (some centres unmarked) [Example 59], on Kir1.1 (ROMK1), it took 230 nM to reach half-maximal inhibition (IC50).
Compound `C[C@H]1Cc2cc([C@@H]3CN4CCN(C(=O)C5CCc6nc(-n7cnnn7)ccc65)C[C@H]4CO3)ccc2C(=O)O1` (single isomer, unassigned) [Example 1G] yielded an IC50 against hROMK (hKir1.1) of 350 nM.
Regarding `C[C@H]1Cc2c(ccc([C@@H]3CN4CCN(C(=O)C5CCc6nc(-n7cnnn7)ccc65)C[C@@H]4CO3)c2F)C(=O)O1` (some centres unmarked) [Example 84], the results for the IC50 against hROMK (hKir1.1) and at Kir1.1 (ROMK1) were 570 nM and 100 nM, respectively.
As to `C[C@@H]1Cc2cc([C@H]3CN4CCN(C(=O)C5CCc6nc(-n7cnnn7)ccc65)C[C@H]4CO3)ccc2C(=O)O1` (single isomer, unassigned) [Example 1C], half-maximal inhibition at hROMK (hKir1.1) (IC50) was put at 310 nM.
Turning to `C[C@@H]1Cc2cc([C@@H]3CN4CCN(C(=O)C5CCc6nc(-n7cnnn7)ccc65)C[C@H]4CO3)ccc2C(=O)O1` (single isomer, unassigned) [Example 1A], the IC50 against hROMK (hKir1.1) amounted to 340 nM; against Kir1.1 (ROMK1), 190 nM.
In the case of `C[C@H]1Cc2c(ccc([C@@H]3CN4CCN(C(=O)C5CCc6nc(-n7cnnn7)ccc65)C[C@@H]4CO3)c2F)C(=O)O1` (some centres unmarked) [Example 85], on hROMK (hKir1.1), it took 600 nM to reach half-maximal inhibition (IC50).
`O=C1OCc2cc([C@H]3CN4CCN(C(=O)C5CCc6cc(-n7cnnn7)ncc65)C[C@H]4CO3)ccc21` (some centres unmarked) [Example 55] had an IC50 against Kir1.1 (ROMK1) of 60 nM.
In turn, `C[C@@H]1Cc2cc([C@H]3CN4CCN(C(=O)C5CCc6nc(-n7cnnn7)ccc65)C[C@H]4CO3)ccc2C(=O)O1` (single isomer, unassigned) [Example 1F] had an IC50 at hROMK (hKir1.1) of 760 nM.
For `O=C1OCCc2cc([C@H]3CN4CCN(C(=O)C5CCc6nc(-n7cnnn7)ccc65)C[C@@H]4CO3)ccc21` (some centres unmarked) [Example 16], the IC50 at hROMK (hKir1.1) and against Kir1.1 (ROMK1) was 390 nM each time.
As to `O=C1OCc2cc([C@@H]3CN4CCN(C(=O)C5CCc6cc(-n7cnnn7)ncc65)C[C@H]4CO3)ccc21` (some centres unmarked) [Example 54], the values for the IC50 against hROMK (hKir1.1) and at Kir1.1 (ROMK1) were 440 nM and 110 nM, respectively.
Take `C[C@@H]1Cc2cc([C@H]3CN4CCN(C(=O)C5CCc6nc(-n7cnnn7)ccc65)CC4CO3)ccc2C(=O)O1` (single isomer, unassigned) [Example 1E]: the results for the IC50 against hROMK (hKir1.1) and at Kir1.1 (ROMK1) were 570 nM and 200 nM, respectively.
Turning to `C[C@@H]1Cc2c(ccc([C@@H]3CN4CCN(C(=O)C5CCc6nc(-n7cnnn7)ccc65)C[C@H]4CO3)c2F)C(=O)O1` (some centres unmarked) [Example 90], on hROMK (hKir1.1), the IC50 turned out to be 280 nM.
`C[C@H]1Cc2cc(C3CN4CCN(C(=O)C5CCc6nc(-n7cnnn7)ccc65)CC4(C)CO3)ccc2C(=O)O1` (some centres unmarked) [Example 60]: the IC50 is 600 nM against hROMK (hKir1.1) and 330 nM against Kir1.1 (ROMK1).
Turning to `Cc1c(C2CN3CCN(C(=O)C4CCc5nc(-n6cnnn6)ccc54)CC3CCO2)ccc2c1COC2=O` (centres unmarked) [Example 62], the figures for the IC50 against hROMK (hKir1.1) and on Kir1.1 (ROMK1) were 450 nM and 130 nM, respectively.
`C[C@H]1Cc2cc([C@@H]3CN4CCN(C(=O)C5CCc6nc(-n7cnnn7)ccc65)CC4CO3)ccc2C(=O)O1` (single isomer, unassigned) [Example 1J]: the values for the IC50 at hROMK (hKir1.1) and on Kir1.1 (ROMK1) were 450 nM and 100 nM, respectively.
`O=C1OCc2cc([C@@H]3CN4CCN(C(=O)C5CCc6nc(-n7cnnn7)ccc65)C[C@H]4CO3)ccc21` (some centres unmarked) [Example 57] came in with an IC50 on Kir1.1 (ROMK1) of 90 nM. That is a double-digit nanomolar value.
Take `C[C@H]1Cc2cc([C@@H]3CN4CCN(C(=O)C5CCc6nc(-n7cnnn7)ccc65)CC4CO3)ccc2C(=O)O1` (single isomer, unassigned) [Example 1I]: the IC50 was found to be 380 nM at hROMK (hKir1.1) and 120 nM on Kir1.1 (ROMK1).
For `O=C1OCc2cc([C@H]3CN4CCN(C(=O)C5CCc6cc(-n7cnnn7)ncc65)C[C@H]4CO3)ccc21` (some centres unmarked) [Example 56], in that order: 220 nM and 110 nM.
In the same order, the values of `O=C1OCc2cc([C@@H]3CN4CCN(C(=O)C5CCc6cc(-n7cnnn7)ncc65)C[C@H]4CO3)ccc21` (some centres unmarked) [Example 53] are 810 nM and 110 nM.
In the same order, the values of `C[C@H]1Cc2cc([C@H]3CN4CCN(C(=O)C5CCc6nc(-n7cnnn7)ccc65)C[C@H]4CO3)ccc2C(=O)O1` (single isomer, unassigned) [Example 1L] are greater than 1000 nM and greater than 1000 nM.
Turning to `C[C@@H]1Cc2cc([C@H]3CN4CCN(C(=O)C5CCc6cc(-n7cnnn7)ncc65)C[C@H]4CO3)ccc2C(=O)O1` (some centres unmarked) [Example 46], the IC50 against hROMK (hKir1.1) and on Kir1.1 (ROMK1) was 540 nM throughout.
`CCc1c([C@H]2CN3CCN(C(=O)C4CCc5nc(-n6cnnn6)ccc54)C[C@H]3CO2)ccc2c1COC2=O` (some centres unmarked) [Example 69]: the IC50 was found to be 790 nM against hROMK (hKir1.1) and 630 nM at Kir1.1 (ROMK1).
In the same order, the values of `O=C1OCc2cc([C@H]3CN4CCN(C(=O)C5CCc6nc(-n7cnnn7)ccc65)C[C@H]4CO3)ccc21` (some centres unmarked) [Example 58] are 420 nM and 150 nM.
Turning to `C[C@H]1Cc2cc([C@@H]3CN4CCN(C(=O)C5CCc6nc(-n7cnnn7)ccc65)C[C@H]4CO3)ccc2C(=O)O1` (single isomer, unassigned) [Example 1H], the IC50 on hROMK (hKir1.1) and on Kir1.1 (ROMK1) was greater than 1000 nM each time.
